Assay type in all cases: biochemical
Experiment [1] deals with PDE 10A (Homo sapiens (Human), UniProt Q9Y233). Briefly: Radioactive PDE10 assay ([3H]cAMP SPA). The procedure: b) Radioactive PDE10 Assay Protocol:
In detail the protocol is as follows:
Into a 384 well plate (OptiPlate, white), the following components are pipetted (either manually or using automated pipetting devices): • 20 μl test-compound solution (test compound diluted in assay buffer at twofold the desired concentration) • +10 μl PDE 10A preparation (enzyme diluted in assay buffer to a concentration of 0.3 ng/μl protein) • +10 μl cAMP tracer (diluted in assay buffer to a concentration of 80 nM cAMP, specific activity ˜4 mCi/I)
After addition of all 3 components the plates are shortly spun and incubated at room temperature for 60 min. The reaction is stopped by the addition of 20 μl Yttrium SPA PDE Beads containing 18 mM zinc sulphate in water
PDE 10A protein is expressed upon baculovirus infection in SF9 cells.

By UniProt entry, the sequences of proteins in these tests, tags left out.
UniProt Q9Y233, whole entry, species assumed: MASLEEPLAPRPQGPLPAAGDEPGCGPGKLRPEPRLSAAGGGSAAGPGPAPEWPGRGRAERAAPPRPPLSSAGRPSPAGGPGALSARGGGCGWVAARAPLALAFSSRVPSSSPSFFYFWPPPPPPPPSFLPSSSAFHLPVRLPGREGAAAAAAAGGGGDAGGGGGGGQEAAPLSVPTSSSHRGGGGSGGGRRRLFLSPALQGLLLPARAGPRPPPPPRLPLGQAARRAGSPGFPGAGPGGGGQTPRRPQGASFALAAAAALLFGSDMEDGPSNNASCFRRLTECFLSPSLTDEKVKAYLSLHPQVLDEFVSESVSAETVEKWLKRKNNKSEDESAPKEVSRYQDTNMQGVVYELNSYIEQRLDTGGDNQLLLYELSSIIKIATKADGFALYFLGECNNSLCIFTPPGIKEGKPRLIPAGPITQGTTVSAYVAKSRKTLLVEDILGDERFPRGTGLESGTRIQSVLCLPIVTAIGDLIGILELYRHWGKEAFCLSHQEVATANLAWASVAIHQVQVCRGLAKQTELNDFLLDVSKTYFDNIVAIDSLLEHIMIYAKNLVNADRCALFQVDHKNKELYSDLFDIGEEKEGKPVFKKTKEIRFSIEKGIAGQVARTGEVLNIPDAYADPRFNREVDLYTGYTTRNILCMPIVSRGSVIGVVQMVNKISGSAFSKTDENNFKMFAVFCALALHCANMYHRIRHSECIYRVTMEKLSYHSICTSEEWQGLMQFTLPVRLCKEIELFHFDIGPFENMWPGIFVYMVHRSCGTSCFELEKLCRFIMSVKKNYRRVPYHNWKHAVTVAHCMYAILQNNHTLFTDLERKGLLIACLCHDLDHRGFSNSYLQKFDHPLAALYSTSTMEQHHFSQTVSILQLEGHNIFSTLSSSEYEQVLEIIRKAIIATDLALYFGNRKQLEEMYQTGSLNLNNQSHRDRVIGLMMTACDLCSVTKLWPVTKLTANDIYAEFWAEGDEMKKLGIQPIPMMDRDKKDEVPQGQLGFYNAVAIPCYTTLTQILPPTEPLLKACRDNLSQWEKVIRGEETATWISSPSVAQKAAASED
UniProt O00408, whole entry, species assumed: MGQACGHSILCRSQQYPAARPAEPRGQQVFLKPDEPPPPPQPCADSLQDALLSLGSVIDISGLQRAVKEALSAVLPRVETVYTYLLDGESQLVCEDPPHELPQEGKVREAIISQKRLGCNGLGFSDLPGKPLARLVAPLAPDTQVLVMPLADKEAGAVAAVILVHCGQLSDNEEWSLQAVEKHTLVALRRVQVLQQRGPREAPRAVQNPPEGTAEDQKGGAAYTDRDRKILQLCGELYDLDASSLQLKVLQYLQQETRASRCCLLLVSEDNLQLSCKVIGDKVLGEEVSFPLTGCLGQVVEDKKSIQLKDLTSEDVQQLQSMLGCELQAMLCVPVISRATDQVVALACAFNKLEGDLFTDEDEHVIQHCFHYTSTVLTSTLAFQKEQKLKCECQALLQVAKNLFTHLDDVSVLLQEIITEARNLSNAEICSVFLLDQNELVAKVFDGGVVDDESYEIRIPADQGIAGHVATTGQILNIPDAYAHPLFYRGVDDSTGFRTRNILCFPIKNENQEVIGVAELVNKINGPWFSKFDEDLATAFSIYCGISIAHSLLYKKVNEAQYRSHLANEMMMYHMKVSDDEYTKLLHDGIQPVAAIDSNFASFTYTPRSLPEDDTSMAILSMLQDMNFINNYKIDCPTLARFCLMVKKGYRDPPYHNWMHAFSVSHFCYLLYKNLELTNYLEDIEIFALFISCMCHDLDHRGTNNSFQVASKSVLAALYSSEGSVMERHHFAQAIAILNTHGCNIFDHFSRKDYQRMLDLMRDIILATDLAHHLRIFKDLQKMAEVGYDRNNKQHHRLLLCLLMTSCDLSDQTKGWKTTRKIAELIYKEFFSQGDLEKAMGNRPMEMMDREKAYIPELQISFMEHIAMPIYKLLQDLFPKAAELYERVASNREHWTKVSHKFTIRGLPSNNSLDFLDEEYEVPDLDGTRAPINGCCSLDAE

Experiment [2] has as its target PDE10 (Homo sapiens (Human), UniProt Q9Y233). In words: PDE10 assay with fluorescent substrate (IMAP, fluorescence polarization). (In fluorescence polarisation assays a small probe gives low polarisation when free and higher when bound to something large.)
The target in experiment [3] is PDE 2A (Homo sapiens (Human), UniProt O00408). In words: PDE 2A assay with fluorescent substrate (IMAP, fluorescence polarization). The note with it: read-out: PDE2 IC50.

Bounds are passed on as bounds.

Broadly, the IC50 is the concentration that inhibits the measured activity by half. On to `Cc1ccc2nc(C)c3nnc(-c4cc(OCCO)ccc4Cl)n3c2n1` [Example 28], for which the IC50 in experiment [1] was more than 10 µM. Molecule `Cc1nc2ccc(C(F)(F)F)nc2n2c(-c3cc(C4(O)CCOCC4)ccc3F)nnc12` [Example 96a] registered an IC50 in experiment [2] of 10 µM. As to `Cc1nc2cccnc2n2c(-c3cc(OC4CCOC4)ccc3Cl)nnc12` (stereo not shown) [Example 22], the IC50 in experiment [1] was more than 5 µM. Take `Cc1nc2ccc(C3CC3)nc2n2c(-c3cc(OC4COCC4O)ccc3Cl)nnc12` (racemic) [Example 56]: the 50% inhibitory concentration (IC50) in experiment [3] was 2 nM.

The values are drawn from patent US9085584B2, “Substituted pyrido[3,2-E][1,2,4]-triazolo[4,3-A]pyrazines for the treatment of central nervous system disorders” (Boehringer Ingelheim International GmbH, priority 2012, dated 2015).
